The target of test [1] is T1, Carbonic anhydrase (Methanobacterium thermoautotrophicum) (UniProt Q50565).
T1 sequence (whole entry): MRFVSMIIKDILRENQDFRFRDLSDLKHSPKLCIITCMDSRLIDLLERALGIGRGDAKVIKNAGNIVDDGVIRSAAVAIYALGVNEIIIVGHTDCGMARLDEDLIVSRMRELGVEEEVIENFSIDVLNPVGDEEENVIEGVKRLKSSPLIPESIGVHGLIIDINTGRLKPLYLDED
Description: Activation of archaea Methanobacterium thermoautotrophicum recombinant carbonic anhydrase by stopped flow CO2 hydration method. The note with it: Methanothermobacter thermautotrophicus.

Test [2] deals with T2, Carbonic anhydrase (Candida glabrata CBS 138) (UniProt Q6FTL6).
T2 sequence (whole entry): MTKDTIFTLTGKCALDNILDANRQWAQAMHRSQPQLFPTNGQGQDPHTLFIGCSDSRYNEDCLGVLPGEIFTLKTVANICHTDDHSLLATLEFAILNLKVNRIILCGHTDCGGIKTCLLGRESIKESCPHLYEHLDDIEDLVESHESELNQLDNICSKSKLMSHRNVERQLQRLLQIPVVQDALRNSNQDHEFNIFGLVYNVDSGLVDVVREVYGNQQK
Briefly: Activation of Candida glabrata recombinant carbonic anhydrase by stopped flow CO2 hydration method. Conditions: Nakaseomyces glabratus. The method, boiled down: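 Recombinant yeast enzyme; stopped-flow CO2 hydration at 25 °C in 20 mM Tris (pH 8.3) and 20 mM NaClO4, with 0.2 mM phenol red read at 557 nm over 10 s. CO2 was 1.7–17 mM. Activators came from 10 mM aqueous stocks and were preincubated 15 min at room temperature with enzyme. Uncatalyzed rates were subtracted. KA was fitted from catalytic enhancement versus activator concentration; mean ± standard error of three assays.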

In the case of `N[C@@H](Cc1ccccc1)C(=O)O`, the Ka in test [1] is 70 µM; in test [2] it was 24.1 µM.
On the same counts, the results for `N[C@H](Cc1ccccc1)C(=O)O` are 10.3 µM and 15.7 µM.
